From patent EP4810052A2, “HCRHR2 SELECTIVE POLYPEPTIDES” (Gubra A/S, priority 2023, dated 2026)

Columns and labels:
hCRHR2 = biological target: T1, hCRHR2 (Homo sapiens, UniProt Q13324); experiment: HTRF cAMP assay, determination of hCRHR2 potency (peptide libraries 5 conc., purified peptides 11 conc.); type: cell-based
T1 sequence (Q13324 1-411): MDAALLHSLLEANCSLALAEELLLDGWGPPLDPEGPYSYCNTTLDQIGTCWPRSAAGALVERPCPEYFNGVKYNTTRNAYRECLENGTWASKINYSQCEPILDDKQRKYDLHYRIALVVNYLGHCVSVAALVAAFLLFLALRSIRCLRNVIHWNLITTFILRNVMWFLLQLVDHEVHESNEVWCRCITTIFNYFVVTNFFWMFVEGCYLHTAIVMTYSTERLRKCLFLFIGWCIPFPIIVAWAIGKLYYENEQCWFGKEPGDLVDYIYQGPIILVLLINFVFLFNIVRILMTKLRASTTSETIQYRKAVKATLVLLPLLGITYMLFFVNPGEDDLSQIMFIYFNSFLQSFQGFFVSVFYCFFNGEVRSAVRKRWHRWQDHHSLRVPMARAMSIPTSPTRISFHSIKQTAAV
Text: HTRF (CisBio) cAMP assay: The assay technology has thoroughly been described in the CisBio HTRF cAMP assay Kit manual (# 62AM4PEC). Briefly, time resolved fluorescence technic was applied to measure cAMP. This technic is based on a competitive immunoassay using cryptate-labelled anti-cAMP antibody and d2-labeled cAMP. In the absence of cellular cAMP, the anti-cAMP cryptate conjugate may get into proximity to cAMP-d2 conjugate and energy (FRET) can be transferred from cryptate to d2.
CHO-K1 cells stably expressing the human corticotropin-releasing hormone receptor 2 (Eurofins/DiscoverX, Cat #95-0048C2 hCRHR2 stable monoclonal cell lines) were used as cells in suspension, brought to life from frozen cell stocks immediately before assay performance.
Concentration-response evaluation of compounds was performed with 5 concentrations of agonist peptides and EC50 values were calculated by nonlinear regression using sigmoid concentration-response with variable slope.
Concentration-response evaluation of compounds was performed with 11 concentrations of agonist peptides and EC50 values were calculated by nonlinear regression using sigmoid concentration-response with variable slope.

[1] = Thioflavin T fibril formation assay of purified peptides; type: physicochemical; details: pH 7.5, ThT assay
Procedure: Thioflavin T fibril formation assay: Peptides were dissolved as 267 µM in 50 mM phosphate buffer pH 7.5 for 2 h at room temperature on a rocking table. The samples were then divided into three replicates of 80 µl/well and mixed with 2 µl/well Thioflavin T (ThT)to a final concentration of 4 µM ThT in a black 384 well microplate with a clear bottom (Greiner #781096). The plate was inserted in a CLARIOstar Plus microplate reader (BMG Labtech) and fibril formation was measured as an increase in fluorescence emission at 480 nm (excitation at 450 nm) during 96 h at 40°C with cycles of 5 min rest and 5 min linearshaking at700 rpm.
Compounds were dissolved to 200 µM (ca 1.0 mg/ml) in 50 mM phosphate buffer with preparation and ThT assay performed as described in the "General procedure for determination of fibril formation of peptides." above. Furthermore, samples were adjusted to pH values as indicated below. Additional co-formulations of compounds with semaglutide were prepared by dissolving compounds to 200 µM in commercially available semaglutide drug product (Ozempic®); these co-formulations were adjusted to pH 7.4.

Selectivity ratio (hCRHR1/ hCRHR2) (hCRHR2; hCRHR1-EC50/hCRHR2-EC50): 917
EC50 (hCRHR2; purified peptides, CHO-K1 cells stably expressing hCRHR2, cAMP HTRF): 0.24 nM
Fibrillation (pH 7.5) [1]: No
Structure (SMILES): CC[C@H](C)[C@H](N)C(=O)N[C@H](C(=O)N[C@@H](CC(C)C)C(=O)N[C@@H](CO)C(=O)N[C@@H](CC(C)C)C(=O)N[C@@H](CC(=O)O)C(=O)N[C@H](C(=O)N1CCC[C@H]1C(=O)N[C@H](C(=O)NCC(=O)N[C@@H](CC(C)C)C(=O)N[C@@H](CC(C)C)C(=O)N[C@@H](CCC(N)=O)C(=O)N[C@H](C(=O)N[C@@H](CC(C)C)C(=O)N[C@@H](CC(C)C)C(=O)N[C@@H](CCC(=O)O)C(=O)N[C@@H](CCC(N)=O)C(=O)N[C@@H](C)C(=O)N[C@@H](CCCNC(=N)N)C(=O)N[C@@H](C)C(=O)N[C@@H](CCCNC(=N)N)C(=O)N[C@@H](C)C(=O)N[C@@H](C)C(=O)N[C@@H](CCCNC(=N)N)C(=O)N[C@@H](CCC(=O)O)C(=O)N[C@@H](CCC(N)=O)C(=O)N[C@@H](C)C(=O)N[C@H](C(=O)N[C@H](C(=O)N[C@@H](CC(N)=O)C(=O)N[C@@H](C)C(=O)N[C@@H](CCCNC(=N)N)C(=O)N[C@H](C(=O)N[C@@H](CC(C)C)C(=O)N[C@@H](C)C(=O)N[C@@H](CCCNC(=N)N)C(=O)N[C@H](C(N)=O)C(C)C)[C@@H](C)CC)[C@@H](C)O)[C@@H](C)O)[C@@H](C)CC)[C@@H](C)CC)C(C)C)C(C)C [SEQ ID NO: 1, reference compound]
